The record followed here is US9890152B2 (Genentech, Inc., priority 2012, dated 2018).

Sequences of proteins named here, by UniProt entry; tags and fusion partners are left off. Residues count along the entry.
UniProt P00533, 25-1210 T790M/L858R limits assumed: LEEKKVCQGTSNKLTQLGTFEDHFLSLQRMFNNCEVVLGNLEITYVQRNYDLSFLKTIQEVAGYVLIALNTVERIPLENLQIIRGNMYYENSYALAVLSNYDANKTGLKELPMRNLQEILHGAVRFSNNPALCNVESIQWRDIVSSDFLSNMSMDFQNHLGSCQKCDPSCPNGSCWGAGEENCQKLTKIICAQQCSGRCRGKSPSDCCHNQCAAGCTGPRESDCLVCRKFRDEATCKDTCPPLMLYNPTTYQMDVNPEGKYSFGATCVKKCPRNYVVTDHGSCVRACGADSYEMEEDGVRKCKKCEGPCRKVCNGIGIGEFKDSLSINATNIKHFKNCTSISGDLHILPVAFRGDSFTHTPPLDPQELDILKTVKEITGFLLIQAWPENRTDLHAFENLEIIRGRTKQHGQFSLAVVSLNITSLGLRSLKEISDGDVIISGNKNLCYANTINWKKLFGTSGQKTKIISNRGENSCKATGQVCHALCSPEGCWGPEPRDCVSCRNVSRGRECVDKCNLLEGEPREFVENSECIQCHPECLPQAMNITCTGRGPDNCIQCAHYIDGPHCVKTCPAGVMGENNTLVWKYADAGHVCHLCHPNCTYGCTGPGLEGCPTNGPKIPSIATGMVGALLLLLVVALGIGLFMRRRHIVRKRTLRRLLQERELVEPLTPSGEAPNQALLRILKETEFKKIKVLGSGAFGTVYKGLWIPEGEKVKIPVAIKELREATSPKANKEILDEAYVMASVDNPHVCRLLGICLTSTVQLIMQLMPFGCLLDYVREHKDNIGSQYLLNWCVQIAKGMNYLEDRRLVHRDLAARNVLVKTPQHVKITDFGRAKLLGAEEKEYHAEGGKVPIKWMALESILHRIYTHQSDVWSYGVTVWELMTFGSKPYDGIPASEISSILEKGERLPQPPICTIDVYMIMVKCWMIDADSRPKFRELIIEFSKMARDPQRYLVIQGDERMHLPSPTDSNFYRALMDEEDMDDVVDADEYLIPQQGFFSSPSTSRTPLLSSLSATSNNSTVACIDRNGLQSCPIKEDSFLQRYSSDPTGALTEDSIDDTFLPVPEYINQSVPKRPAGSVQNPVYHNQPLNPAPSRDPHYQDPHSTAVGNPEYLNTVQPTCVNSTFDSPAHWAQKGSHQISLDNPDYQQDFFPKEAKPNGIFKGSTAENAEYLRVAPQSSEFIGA

The target of the experiment is EGFR T790M L858R (Homo sapiens, UniProt P00533, L858R/T790M). Put plainly: biochemical. The following applies: EGFR(T790M/L858R) Ki (μM), 5 μM ATP, 30 min, room temperature; apparent Ki (Morrison) converted by Cheng-Prusoff, Km of ATP 1.3 μM.

SMILES strings stand for the structures.

As to `Cc1nc2cnc(Nc3ccnc(N4CCc5cn(CCO)nc5C4)n3)cc2n1C(C)C` [Example 278, 2-{6-[4-(1-Isopropyl-2-methyl-1H-imidazo[4,5-c]pyridin-6-ylamino)pyrimidin-2-yl]-4,5,6,7-tetrahydropyrazolo[3,4-c]pyridin-2-yl}ethanol], the Ki is 0.0481 µM.

For `COCc1nc2cnc(Nc3ccnc(-c4cnn(S(=O)(=O)C5CC5)c4)n3)cc2n1C(C)C` [Example 279, [2-(1-Cyclopropanesulfonyl-1H-pyrazol-4-yl)-pyrimidin-4-yl]-(1-isopropyl-2-methoxymethyl-1H-imidazo[4,5-c]pyridin-6-yl)amine], the Ki came to 0.00663 µM.

`CC[C@@H](C)n1c([C@@H](C)O)nc2cnc(Nc3ccnc(-c4cnn(S(=O)(=O)CC)c4)n3)cc21` [Example 281, (R)-1-{1-((R)-sec-Butyl)-6-[2-(1-ethanesulfonyl-1H-pyrazol-4-yl)-pyrimidin-4-ylamino]-1H-imidazo[4,5-c]pyridin-2-yl}ethanol]: the Ki was determined as 0.00474 µM.

For `CC(C)n1c(N(C)C)nc2cnc(Nc3ccnc(-c4cnn(S(=O)(=O)C5CC5)c4)n3)cc21` [Example 283, N^6-[2-(1-Cyclopropanesulfonyl-1H-pyrazol-4-yl)-pyrimidin-4-yl]-1-isopropyl-N^2,N^2-dimethyl-1H-imidazo[4,5-c]pyridine-2,6-diamine], the Ki was 0.00668 µM.

In the case of `CC(C)n1c(OC2CNC2)nc2cnc(Nc3ccnc(-c4cnn(S(=O)(=O)C5CC5)c4)n3)cc21` [Example 284, [2-(Azetidin-3-yloxy)-1-isopropyl-1H-imidazo[4,5-c]pyridin-6-yl]-[2-(1-cyclopropanesulfonyl-1H-pyrazol-4-yl)pyrimidin-4-yl]amine], the Ki is 0.00226 µM.

For `CC(C)n1c(OC2CNC2)nc2cnc(Nc3ccnc(-c4cn[nH]c4)n3)cc21` [Example 285, [2-(Azetidin-3-yloxy)-1-isopropyl-1H-imidazo[4,5-c]pyridin-6-yl]-[2-(1H-pyrazol-4-yl)pyrimidin-4-yl]amine], the Ki amounted to 0.0742 µM.

Turning to `C[C@@H](n1c(CO)nc2cnc(Nc3ccnc(-c4cnn(S(=O)(=O)C5CC5)c4)n3)cc21)C(F)(F)F` [Example 286, [(R)-6-[2-(1-Cyclopropanesulfonyl-1H-pyrazol-4-yl)pyrimidin-4-ylamino]-1-(2,2,2-trifluoro-1-methylethyl)-1H-imidazo[4,5-c]pyridin-2-yl]methanol], the Ki was 0.00236 µM.

As to `CC(C)n1cnc2cnc(Nc3ccnc(C4CCN(S(C)(=O)=O)CC4)n3)cc21` [Example 287, (1-Isopropyl-1H-imidazo[4,5-c]pyridin-6-yl)-[2-(1-methanesulfonylpiperidin-4-yl)pyrimidin-4-yl]amine], the Ki was 0.614 µM.

On to `CO[C@H]1CCN(c2nccc(Nc3cc4c(cn3)nc([C@@H](C)O)n4[C@@H](C)C(F)(F)F)n2)C[C@H]1F` [Example 288, (R)-1-[6-[2-((3R,4S)-3-Fluoro-4-methoxypiperidin-1-yl)-pyrimidin-4-ylamino]-1-((S)-2,2,2-trifluoro-1-methylethyl)-1H-imidazo[4,5-c]pyridin-2-yl]ethanol], for which the Ki came to 0.00161 µM.

Take `C[C@H](n1c([C@@H](C)O)nc2cnc(Nc3ccnc(N4CC[C@H](O)[C@H](F)C4)n3)cc21)C(F)(F)F` [Example 289, (3R,4S)-3-Fluoro-1-{4-[2-((R)-1-hydroxyethyl)-1-((S)-2,2,2-trifluoro-1-methylethyl)-1H-imidazo[4,5-c]pyridin-6-ylamino]pyrimidin-2-yl}-piperidin-4-ol]: the Ki was 0.00135 µM.

Turning to `CO[C@@H]1CCN(c2nccc(Nc3cc4c(cn3)nc([C@@H](C)O)n4[C@@H](C)C(F)(F)F)n2)C[C@@H]1F` [Example 290, (R)-1-[6-[2-((3S,4R)-3-Fluoro-4-methoxypiperidin-1-yl)-pyrimidin-4-ylamino]-1-((S)-2,2,2-trifluoro-1-methylethyl)-1H-imidazo[4,5-c]pyridin-2-yl]ethanol], the Ki was found to be 0.00142 µM.

On to `C[C@H](n1c([C@@H](C)O)nc2cnc(Nc3ccnc(N4CC[C@@H](O)[C@@H](F)C4)n3)cc21)C(F)(F)F` [Example 291, (3S,4R)-3-Fluoro-1-{4-[2-((R)-1-hydroxyethyl)-1-((S)-2,2,2-trifluoro-1-methylethyl)-1H-imidazo[4,5-c]pyridin-6-ylamino]pyrimidin-2-yl}-piperidin-4-ol], for which the Ki is 0.00124 µM.

For `Cc1nc2cnc(Nc3ccnc(N4CCCC(C#N)C4)n3)cc2n1C(C)C` (stereo not shown) [Example 292, 1-[4-(1-Isopropyl-2-methyl-1H-imidazo[4,5-c]pyridin-6-ylamino)pyrimidin-2-yl]piperidine-3-carbonitrile], the Ki is 0.294 µM.

As to `CNc1nc2cnc(Nc3ccnc(-c4cnn(S(=O)(=O)C5CC5)c4)n3)cc2n1C(C)C` [Example 293, N^6-[2-(1-Cyclopropanesulfonyl-1H-pyrazol-4-yl)pyrimidin-4-yl]-1-isopropyl-N^2-methyl-1H-imidazo[4,5-c]pyridine-2,6-diamine], the Ki turned out to be 0.00268 µM.

As for `Cc1nc2cnc(Nc3ccnc(NCCC(N)=O)n3)cc2n1C(C)C` [Example 298, 3-[4-(1-Isopropyl-2-methyl-1H-imidazo[4,5-c]pyridin-6-ylamino)pyrimidin-2-ylamino]propionamide], the Ki was 0.161 µM.

`CCC(C)(CNc1nccc(Nc2cc3c(cn2)nc(C)n3C(C)C)n1)C(=O)O` (stereo not shown) [Example 299, 2-{[4-(1-Isopropyl-2-methyl-1H-imidazo[4,5-c]pyridin-6-ylamino)pyrimidin-2-ylamino]methyl}-2-methylbutyric acid]: the Ki is 0.353 µM.

Take `CCC(C)(CNc1nccc(Nc2cc3c(cn2)nc(C)n3C(C)C)n1)C(N)=O` (stereo not shown) [Example 300, 2-{[4-(1-Isopropyl-2-methyl-1H-imidazo[4,5-c]pyridin-6-ylamino)pyrimidin-2-ylamino]methyl}-2-methylbutyramide]: the Ki stood at 0.0224 µM.

Take `Cc1nc2cnc(Nc3ccnc(NCC(O)C(N)=O)n3)cc2n1C(C)C` (stereo not shown) [Example 301, 2-Hydroxy-3-[4-(1-isopropyl-2-methyl-1H-imidazo[4,5-c]pyridin-6-ylamino)pyrimidin-2-ylamino]propionamide]: the Ki stood at 0.325 µM.

For the compound `Cc1nc2cnc(Nc3ccnc(NCC(C)(C)C(=O)O)n3)cc2n1C(C)C` [Example 302, 3-[4-(1-Isopropyl-2-methyl-1H-imidazo[4,5-c]pyridin-6-ylamino)pyrimidin-2-ylamino]-2,2-dimethylpropionic acid], the Ki worked out at 0.243 µM.

`Cc1nc2cnc(Nc3ccnc(NCC(C)(CO)C(N)=O)n3)cc2n1C(C)C` (stereo not shown) [Example 303, 2-Hydroxymethyl-3-[4-(1-isopropyl-2-methyl-1H-imidazo[4,5-c]pyridin-6-ylamino)pyrimidin-2-ylamino]-2-methylpropionamide]: the Ki amounted to 0.179 µM.

With `COC(C)(C)C#Cc1nccc(Nc2cc3c(cn2)nc(C)n3C(C)C)n1` [Example 304, (1-Isopropyl-2-methyl-1H-imidazo[4,5-c]pyridin-6-yl)-[2-(3-methoxy-3-methylbut-1-ynyl)pyrimidin-4-yl]amine], the Ki was determined as 0.116 µM.

Consider `COC(C)(C)CCc1nccc(Nc2cc3c(cn2)nc(C)n3C(C)C)n1` [Example 305, (1-Isopropyl-2-methyl-1H-imidazo[4,5-c]pyridin-6-yl)-[2-(3-methoxy-3-methylbutyl)pyrimidin-4-yl]amine], for which the Ki came out at 0.983 µM.
